# In patent US20120165334A1, “Indole/Benzimidazole Compounds as mTOR Kinase Inhibitors” (AMGEN INC., priority 2009, published 2012):
# Target: T1, mTOR (Homo sapiens, UniProt P42345)
# T1 construct: 2.5 μl of 0.6 μg/ml of mTOR Enzyme (Amgen) was added to rows 1-23
# Assay: mTOR LanthaScreen (TR-FRET, phosphorylation of 4EBP1)
# Format: biochemical
# Conditions: read-out: AA11016+++mTor_MA_IC50_IP
# Experimental: The mTOR LanthaScreen is a TR-FRET assay measuring the phosphorylation of mTOR's substrate 4EBP1. 384 well compound plates were prepared containing 1 μl of compound per well starting at 5 mM and diluted 1:2 across the row, resulting in a 22 well serial dilution.
# The assay was conducted on the PerkinElmer® FlexDrop PLUS. A 5 μl mix of 800 nM GFP-4E-BP1 (Invitrogen, PV4759) and 20 μM ATP (Amgen) was added to rows 1-24. 2.5 μl of 0.6 μg/ml of mTOR Enzyme (Amgen) was added to rows 1-23. 2.5 μl of assay buffer was added to row 24 for the low control. […] The final concentrations in the assay reagents were 400 nM GFP-4E-BP1, 10 μM of ATP and 0.15 μg/ml of mTOR enzyme. The compound, enzyme, and substrate incubate for 90 minutes.
substance,measurement,value
"methyl 1-(4-amino-6-methyl-1,3,5-triazin-2-yl)-2-((3-methoxyphenyl)amino)-1H-benzimidazole-6-carboxylate [Cpd 90]",IC50,> 50 µM
